# Laboratory results as given in patent publication US20040132045A1 (MERCK, published 2004).
# The chains behind the UniProt entries cited, without tags or fusion partners. Where a name states a change or a piece, a line headed by the entry shows the natural chain unless it says otherwise.
# UniProt P20382: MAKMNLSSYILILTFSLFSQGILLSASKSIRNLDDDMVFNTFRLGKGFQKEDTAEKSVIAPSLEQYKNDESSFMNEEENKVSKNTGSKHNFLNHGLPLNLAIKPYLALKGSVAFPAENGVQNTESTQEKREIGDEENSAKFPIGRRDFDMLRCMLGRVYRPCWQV
# UniProt Q8MJ88: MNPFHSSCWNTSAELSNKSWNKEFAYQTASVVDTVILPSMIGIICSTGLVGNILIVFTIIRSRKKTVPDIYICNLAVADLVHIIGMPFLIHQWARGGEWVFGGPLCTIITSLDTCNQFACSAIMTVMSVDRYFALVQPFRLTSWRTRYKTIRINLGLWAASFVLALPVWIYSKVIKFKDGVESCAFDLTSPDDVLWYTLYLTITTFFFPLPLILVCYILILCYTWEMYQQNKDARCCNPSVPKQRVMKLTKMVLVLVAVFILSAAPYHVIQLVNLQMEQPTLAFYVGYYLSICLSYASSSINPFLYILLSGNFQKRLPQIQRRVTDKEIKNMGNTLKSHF
# B1: Melanin-concentrating hormone (MCH) (peptide, UniProt P20382 147-165, looked up)
# peptide: DFDMLRCMLGRVYRPCWQV
# modifications: cyclic (as printed: 'cyclic 19-amino acid neuropeptide')
# notes: mature; also called cold MCH; MCH unlabeled peptide
# Biological target: T1, rhesus monkey MCH-2R (melanin-concentrating hormone type 2 receptor) (rhesus monkey, UniProt Q8MJ88 1-340)
# T1 construct: also called rhesus MCH-2R
# Experiment: displacement of 100 pM [125I]-[Phe13, Tyr19]-MCH from HEK293T cells expressing rhesus MCH-2R, filtration
# Experimental: HEK293T cells transfected with pEF1/V5-H is C/MCH-2R plasmid were harvested by phosphate-buffered saline containing 2 mM EDTA 48 hours after transfection, and washed once with the assay buffer (Hanks' balanced salt solution containing 20 mM HEPES, 0.2% BSA and 100 μg/ml bacitracin, pH 7.4). The cells (4×10⁵ cells/tube) were then incubated in 250 μl/tube of the same buffer with 100 pM [¹²⁵I]-[Phe¹³, Tyr¹⁹]-MCH for 30 minutes at 37° C. After the incubation, bound and free [¹²⁵I]-[Phe¹³, Tyr¹⁹]-MCH were separated by filtration using a Unifilter GF/B glass filter (Packard Instrument) presoaked with 0.3% polyethylenimine. The remaining radio activity on the filter was quantitated using a TopCount HTS (Packard instrument) with a Microscint 0 scintillation cocktail (Packard instrument). Specific binding was defined as the difference between total binding and nonspecific binding in the presence of 1 μM cold [Phe¹³, Tyr¹⁹]-MCH. Data were analyzed using GraphPad Prism Version 3.0.
# IC₅₀ values of MCH and [Phe¹³, Tyr¹⁹]-MCH in this experiment were calculated as 9.9 and 3.8 nM, respectively.
binder,measurement,value
B1,IC50,9.9 nM
